# Literature values, collected in EP2738198A1, “Enzymatic synthesis of polyamide in aqueous mini-emulsion” (Henkel AG & Co. KGaA, priority 2012, dated 2014).
# Details: alcohol CnH2n+1OH corresponding to the alkyl group of the di(alkyl) sebacate, data from Handbook of Chemistry and Physics 86th Edition
row,Partial Solubility of CnH2n+1OH in water,SMILES
1,32 mg/mL,CCCCCO [n 5]
2,2.5 mg/mL,CCCCCCCO [n 7]
